Test results from ChEMBL document CHEMBL4376896, “Synthesis of Novel Potent Archazolids: Pharmacology of an Emerging Class of Anticancer Drugs” (J Med Chem, 2020).

Target: T1, Neutrophil elastase (Homo sapiens) (UniProt P08246)
T1 sequence (whole entry): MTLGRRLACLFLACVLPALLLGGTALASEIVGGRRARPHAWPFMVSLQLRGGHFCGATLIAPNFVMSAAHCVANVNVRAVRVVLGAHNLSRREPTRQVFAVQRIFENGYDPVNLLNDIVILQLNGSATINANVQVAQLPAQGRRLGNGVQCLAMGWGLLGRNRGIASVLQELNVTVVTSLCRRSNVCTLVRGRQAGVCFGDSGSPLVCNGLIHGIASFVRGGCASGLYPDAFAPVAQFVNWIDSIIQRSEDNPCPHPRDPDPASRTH
Test: Inhibition of human leukocyte elastase assessed as residual enzyme activity by measuring pNA release at 2.5 uM using chromogenic MeO-Suc-Ala-Ala-Pro-Val-pNA substrate measured over 10 mins by spectrophotometry

`CO/C1=C\C(C)=C\[C@@H](C)[C@@H](O)[C@@H](C)C/C(C)=C/C=C/[C@H](OC)[C@@H]([C@@H](C)[C@@H](O)[C@H](C)[C@@]2(O)C[C@@H](O)[C@H](C)[C@@H](C(C)C)O2)OC1=O` [BAFILOMYCIN A1] showed an Activity of over 95%.
